This test has as its target human β1-AR (Homo sapiens, UniProt P08588). In words: 3H-CGP12177 whole-cell binding in CHO-β1 cells.

Amino acid sequences for entries named in this document (tags omitted).
UniProt P08588, whole entry: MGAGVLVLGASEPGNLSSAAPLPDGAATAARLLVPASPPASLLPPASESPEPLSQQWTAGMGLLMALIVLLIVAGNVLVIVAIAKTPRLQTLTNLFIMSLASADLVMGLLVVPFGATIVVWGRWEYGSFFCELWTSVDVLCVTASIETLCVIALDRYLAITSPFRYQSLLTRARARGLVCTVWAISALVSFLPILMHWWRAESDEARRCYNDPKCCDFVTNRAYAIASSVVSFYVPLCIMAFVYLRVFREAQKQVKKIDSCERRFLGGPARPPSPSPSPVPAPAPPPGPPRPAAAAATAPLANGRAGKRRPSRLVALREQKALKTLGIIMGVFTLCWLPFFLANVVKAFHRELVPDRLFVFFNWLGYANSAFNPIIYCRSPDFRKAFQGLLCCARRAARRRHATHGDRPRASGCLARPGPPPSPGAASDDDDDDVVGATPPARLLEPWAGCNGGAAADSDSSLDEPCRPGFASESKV

Turning to `N#Cc1cc(OCCOCC2CC2)ccc1OCC(O)CNCCNC(=O)Nc1ccc(O)cc1` (stereo not shown) [LK204-545, reference compound], the affinity, expressed as Kd, was 6.76 nM.

The term Kd denotes a measure of binding affinity in units of concentration. A lower Kd goes with a tighter complex.

The record behind these values is publication PMC5471521, “Novel selective β1-adrenoceptor antagonists for concomitant cardiovascular and respiratory disease” (The FASEB Journal, 2017).
